Consider 36 compounds from patent US20220389009A1, “SUBSTITUTED 1,6-NAPHTHYRIDINE INHIBITORS OF CDK5” (Goldfinch Bio, Inc., priority 2019, published 2022).

The chains behind the UniProt entries cited, without tags or fusion partners. Residues count along the entry.
UniProt Q00535, whole entry: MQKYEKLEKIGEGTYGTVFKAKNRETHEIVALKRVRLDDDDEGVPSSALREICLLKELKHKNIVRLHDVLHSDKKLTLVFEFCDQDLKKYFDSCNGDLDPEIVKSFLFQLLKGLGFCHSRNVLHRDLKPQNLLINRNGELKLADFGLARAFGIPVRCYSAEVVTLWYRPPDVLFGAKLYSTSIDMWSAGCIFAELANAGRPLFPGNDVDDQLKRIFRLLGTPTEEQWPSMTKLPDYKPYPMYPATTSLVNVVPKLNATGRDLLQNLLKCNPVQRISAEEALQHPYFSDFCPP
UniProt Q15078, 99-307 partner limits assumed: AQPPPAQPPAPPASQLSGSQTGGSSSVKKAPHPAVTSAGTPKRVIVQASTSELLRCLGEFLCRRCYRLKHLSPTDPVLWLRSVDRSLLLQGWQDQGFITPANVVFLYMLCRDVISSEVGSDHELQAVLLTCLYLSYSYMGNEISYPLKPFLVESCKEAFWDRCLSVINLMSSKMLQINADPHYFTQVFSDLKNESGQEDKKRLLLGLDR

One experiment has as its target CDK5/p25 (Homo sapiens, UniProt Q00535). The experiment in a line: CDK5 mobility shift assay (enzymatic activity of CDK5/p25). Particulars: for CDK5/CDK2 specificity: fold more active against CDK5 than CDK2; for IC50: read-out: CDK5 IC50, 0.154 nM CDK5/p25, FL peptide 29, 60 min at room temperature.
Another experiment has as its target CDK2/CycA2 (Homo sapiens, UniProt P24941). The experiment in a line: CDK2 mobility shift assay (enzymatic activity of CDK2/CycA2). Particulars: read-out: CDK2 IC50; 1.25 nM CDK2/CycA2, 37 μM ATP, FL Peptide 18, 120 min at room temperature.

As usually defined, the IC50 is the midpoint of a concentration-inhibition curve. On to `OCc1ccnn1-c1ccc(Nc2cc3nc(NC4CCNCC4)ccc3cn2)c(F)c1`, for which, on CDK5/p25, the CDK5/CDK2 specificity result is “++ (greater than 10-fold and less than or equal to 100-fold more active against CDK5 than CDK2)”; the IC50 was in the range of 0.01 to 0.1 µM. Also, on CDK2/CycA2, the IC50 lay within 0.1 to 1 µM.
On to `CN1CCC(S(=O)(=O)c2ccc3cnc(Nc4ccc(-c5cccc(C#N)c5)cc4F)cc3n2)CC1`, for which the CDK5/CDK2 specificity result at CDK5/p25 is reported as “+++ (greater than 100-fold more active against CDK5 than CDK2)”. Further, the results for the IC50 on CDK5/p25 and on CDK2/CycA2 were below 0.01 µM and above 1 µM, respectively.
`N#Cc1cccc(-c2ccc(Nc3cc4nc(SC5CCNCC5)ccc4cn3)c(F)c2)c1`: on CDK5/p25, the CDK5/CDK2 specificity entry is “++ (greater than 10-fold and less than or equal to 100-fold more active against CDK5 than CDK2)”; the half-inhibitory concentration (IC50) is below 0.01 µM. Also, the IC50 on CDK2/CycA2 is 0.01 to 0.1 µM.
For `CN1CCC(Nc2ccc3cnc(Nc4ccc(-c5cccnc5)cc4F)cc3n2)CC1`, at CDK5/p25, the CDK5/CDK2 specificity result was “++ (greater than 10-fold and less than or equal to 100-fold more active against CDK5 than CDK2)”; the concentration for half-maximal inhibition (IC50) was below 0.01 µM. On CDK2/CycA2, the IC50 was 0.1 to 1 µM.
For `N[C@H]1CC[C@@H](N(CC(=O)O)c2ccc3cnc(Nc4ccc(-n5cccn5)cc4F)cc3n2)CC1` (relative stereo), at CDK5/p25, the CDK5/CDK2 specificity entry was “+++ (greater than 100-fold more active against CDK5 than CDK2)” and the IC50 fell in the range of 0.01 to 0.1 µM. The IC50 on CDK2/CycA2 was above 1 µM.
Taken in the same sequence, the figures for `CN1CCC(S(=O)(=O)c2ccc3cnc(Nc4cncnc4)cc3n2)CC1` were “+ (10-fold or less more active against CDK5 than CDK2)”, 0.1 to 1 µM and above 1 µM.
For the compound `CN1CCC(S(=O)(=O)c2ccc3cnc(Nc4cccc(S(C)(=O)=O)c4)cc3n2)CC1`, at CDK5/p25, the CDK5/CDK2 specificity entry was “++ (greater than 10-fold and less than or equal to 100-fold more active against CDK5 than CDK2)”; the IC50 was below 0.01 µM. In addition, on CDK2/CycA2, the IC50 lay within 0.1 to 1 µM.
On to `C[C@]1(N)CC[C@H](S(=O)(=O)c2ccc3cnc(Nc4ccc(-n5ccc(CO)n5)cc4F)cc3n2)CC1` (relative stereo), for which, at CDK5/p25, the CDK5/CDK2 specificity result is “++ (greater than 10-fold and less than or equal to 100-fold more active against CDK5 than CDK2)”; the IC50 is below 0.01 µM. Besides, the IC50 on CDK2/CycA2 fell in the range of 0.01 to 0.1 µM.
`CCc1ccc(F)c(Nc2cc3nc(C(C)(O)C4CCN(C)CC4)ccc3cn2)c1` (stereo not drawn): on CDK5/p25, the CDK5/CDK2 specificity entry was “++ (greater than 10-fold and less than or equal to 100-fold more active against CDK5 than CDK2)”; the IC50 is below 0.01 µM. Moreover, the IC50 at CDK2/CycA2 fell in the range of 0.01 to 0.1 µM.
As to `CCOC(=O)c1cccc(-c2ccc(Nc3cc4nc(S(=O)(=O)C5CCN(C)CC5)ccc4cn3)c(F)c2)c1`, on CDK5/p25, the CDK5/CDK2 specificity result is listed as “+++ (greater than 100-fold more active against CDK5 than CDK2)” and the IC50 was below 0.01 µM. Also, the half-maximal inhibitory concentration (IC50) on CDK2/CycA2 is above 1 µM.
On to `COc1ccc(-c2ccc(Nc3cc4nc([C@@](C)(O)C5CCN(C)CC5)ccc4cn3)c(F)c2)cc1`, for which the CDK5/CDK2 specificity result on CDK5/p25 was “++ (greater than 10-fold and less than or equal to 100-fold more active against CDK5 than CDK2)”. For the same compound, the IC50 on CDK5/p25 was 0.1 to 1 µM; on CDK2/CycA2, above 1 µM.
With `CN1CCC(S(=O)(=O)c2ccc3cnc(Nc4ccc(-c5cccc(C(N)=O)c5)cc4F)cc3n2)CC1`, at CDK5/p25, the CDK5/CDK2 specificity result is “+++ (greater than 100-fold more active against CDK5 than CDK2)” and the IC50 was below 0.01 µM. Also, at CDK2/CycA2, the IC50 was in the range of 0.1 to 1 µM.
Taken in the same sequence, the figures for `CN1CCC(S(=O)(=O)c2ccc3cnc(Nc4ccc(N5CCCS5(=O)=O)cc4)cc3n2)CC1` were “+ (10-fold or less more active against CDK5 than CDK2)”, below 0.01 µM and below 0.01 µM.
Taken in the same sequence, the figures for `Cc1cccc(-c2ccc(Nc3cc4nc(S(=O)(=O)C5CCN(C)CC5)ccc4cn3)c(F)c2)c1` were “+++ (greater than 100-fold more active against CDK5 than CDK2)”, below 0.01 µM and above 1 µM.
On to `C[C@H]1CNCC[C@@H]1Sc1ccc2cnc(Nc3ccc(-n4ccc(CO)n4)cc3F)cc2n1`, for which, at CDK5/p25, the CDK5/CDK2 specificity entry is “++ (greater than 10-fold and less than or equal to 100-fold more active against CDK5 than CDK2)”; the IC50 was below 0.01 µM. Also, at CDK2/CycA2, the half-inhibitory concentration (IC50) fell in the range of 0.01 to 0.1 µM.
On to `COC(=O)c1ccn(-c2ccc(Nc3cc4nc([C@H](C)C5CCN(C)CC5)ccc4cn3)c(F)c2)n1`, for which the CDK5/CDK2 specificity result at CDK5/p25 was “++ (greater than 10-fold and less than or equal to 100-fold more active against CDK5 than CDK2)”. Moreover, the IC50 was 0.1 to 1 µM on CDK5/p25 and above 1 µM at CDK2/CycA2.
`CN1CCC(S(=O)(=O)c2ccc3cnc(Nc4cccc(C(N)=O)c4)cc3n2)CC1`: the CDK5/CDK2 specificity result on CDK5/p25 is recorded as “+++ (greater than 100-fold more active against CDK5 than CDK2)”. Besides, the IC50 was below 0.01 µM at CDK5/p25 and 0.1 to 1 µM on CDK2/CycA2.
Consider `CO/N=C(/c1ccc2cnc(Nc3ccc(-n4cccn4)cc3F)cc2n1)C1CCN(C)CC1`, for which, at CDK5/p25, the CDK5/CDK2 specificity result was “++ (greater than 10-fold and less than or equal to 100-fold more active against CDK5 than CDK2)”. The IC50 at CDK5/p25 and on CDK2/CycA2 was above 1 µM in each case.
In the case of `COc1nccnc1-c1ccc(Nc2cc3nc(C(C)(O)C4CCN(C)CC4)ccc3cn2)c(F)c1` (stereo not drawn), at CDK5/p25, the CDK5/CDK2 specificity result was “++ (greater than 10-fold and less than or equal to 100-fold more active against CDK5 than CDK2)”; the IC50 is below 0.01 µM. Besides, the IC50 at CDK2/CycA2 is 0.01 to 0.1 µM.
For the compound `CN1CCC([C@@](C)(O)c2ccc3cnc(Nc4cc(N5CCCC5=O)ccc4F)cc3n2)CC1`, on CDK5/p25, the CDK5/CDK2 specificity entry was “++ (greater than 10-fold and less than or equal to 100-fold more active against CDK5 than CDK2)”; the half-inhibitory concentration (IC50) was below 0.01 µM. In addition, the IC50 on CDK2/CycA2 fell in the range of 0.01 to 0.1 µM.
Take `Cc1ccc(-c2ccc(Nc3cc4nc(S(=O)(=O)C5CCN(C)CC5)ccc4cn3)c(F)c2)cc1`: the CDK5/CDK2 specificity entry on CDK5/p25 is given as “+++ (greater than 100-fold more active against CDK5 than CDK2)”. The IC50 is below 0.01 µM at CDK5/p25 and 0.1 to 1 µM at CDK2/CycA2.
With `CN1CCC(N(CC(=O)O)c2ccc3cnc(Nc4ccc(-c5cccc(C#N)c5)cc4F)cc3n2)CC1`, at CDK5/p25, the CDK5/CDK2 specificity result is “++ (greater than 10-fold and less than or equal to 100-fold more active against CDK5 than CDK2)”; the IC50 was below 0.01 µM. Besides, the IC50 on CDK2/CycA2 was 0.1 to 1 µM.
`CCN1CCC([C@@](C)(O)c2ccc3cnc(Nc4ccc(-c5cccn(C)c5=O)cc4F)cc3n2)CC1`: the CDK5/CDK2 specificity entry at CDK5/p25 is “++ (greater than 10-fold and less than or equal to 100-fold more active against CDK5 than CDK2)”. Also, the IC50 fell in the range of 0.01 to 0.1 µM on CDK5/p25 and 0.1 to 1 µM on CDK2/CycA2.
For `CN1CCC(S(=O)(=O)c2ccc3cnc(Nc4cc[nH]c(=O)c4)cc3n2)CC1`, on CDK5/p25, the CDK5/CDK2 specificity entry is reported as “+ (10-fold or less more active against CDK5 than CDK2)” and the IC50 was above 1 µM. Moreover, the IC50 at CDK2/CycA2 is above 1 µM.
As for `O=S(=O)(c1ccc2cnc(Nc3ccc(-n4cccn4)cc3F)cc2n1)C1CCNCC1`, the CDK5/CDK2 specificity result at CDK5/p25 was “++ (greater than 10-fold and less than or equal to 100-fold more active against CDK5 than CDK2)”. Also, the IC50 on CDK5/p25 was 0.01 to 0.1 µM; at CDK2/CycA2, 0.1 to 1 µM.
For the compound `CN1CCC(S(=O)(=O)c2ccc3cnc(Nc4ccc(N5CCOCC5=O)cc4)cc3n2)CC1`, on CDK5/p25, the CDK5/CDK2 specificity result is “++ (greater than 10-fold and less than or equal to 100-fold more active against CDK5 than CDK2)”; the IC50 is below 0.01 µM. In addition, the IC50 at CDK2/CycA2 is 0.01 to 0.1 µM.
For `COC(=O)c1ccn(-c2ccc(Nc3cc4nc([C@@H](C)C5CCN(C)CC5)ccc4cn3)c(F)c2)n1`, on CDK5/p25, the CDK5/CDK2 specificity result is “+++ (greater than 100-fold more active against CDK5 than CDK2)” and the IC50 is below 0.01 µM. Further, the IC50 on CDK2/CycA2 lay within 0.1 to 1 µM.
The matching figures for `COc1ccc(-c2ccc(Nc3cc4nc(S(=O)(=O)C5CCN(C)CC5)ccc4cn3)c(F)c2)cn1`: “+++ (greater than 100-fold more active against CDK5 than CDK2)”, below 0.01 µM and 0.1 to 1 µM.
In the case of `CN1CCC(S(=O)(=O)c2ccc3cnc(Nc4ccc(-n5ccc(CO)n5)cc4F)cc3n2)CC1`, at CDK5/p25, the CDK5/CDK2 specificity result is given as “+++ (greater than 100-fold more active against CDK5 than CDK2)” and the IC50 was below 0.01 µM. Further, the IC50 on CDK2/CycA2 is above 1 µM.
Turning to `CN1CCC([C@@](C)(O)c2ccc3cnc(Nc4cc(N5CCOCC5)ccc4F)cc3n2)CC1`, the CDK5/CDK2 specificity entry on CDK5/p25 is given as “+++ (greater than 100-fold more active against CDK5 than CDK2)”. Besides, the IC50 on CDK5/p25 is below 0.01 µM; on CDK2/CycA2 it was 0.1 to 1 µM.
With `COc1cccc(-c2ccc(Nc3cc4nc(S(=O)(=O)C5CCN(C)CC5)ccc4cn3)c(F)c2)n1`, the CDK5/CDK2 specificity result on CDK5/p25 was “+++ (greater than 100-fold more active against CDK5 than CDK2)”. The values for the IC50 at CDK5/p25 and on CDK2/CycA2 were below 0.01 µM and above 1 µM, respectively.
The matching figures for `O=C(O)CN(c1ccc2cnc(Nc3ccc(-n4ccc(CO)n4)cc3F)cc2n1)C1CCN(CC(F)(F)F)CC1`: “+ (10-fold or less more active against CDK5 than CDK2)”, above 1 µM and above 1 µM.
On to `O=C(O)CN(c1ccc2cnc(Nc3ccc(-n4ccc(CO)n4)cc3F)cc2n1)C1CCN(CCO)CC1`, for which, on CDK5/p25, the CDK5/CDK2 specificity entry was “++ (greater than 10-fold and less than or equal to 100-fold more active against CDK5 than CDK2)”; the IC50 was below 0.01 µM. On CDK2/CycA2, the 50% inhibitory concentration (IC50) is 0.1 to 1 µM.
In the case of `COc1ccc(-c2ccc(Nc3cc4nc([C@](C)(O)C5CCN(C)CC5)ccc4cn3)c(F)c2)cc1`, the CDK5/CDK2 specificity result on CDK5/p25 is “++ (greater than 10-fold and less than or equal to 100-fold more active against CDK5 than CDK2)”. The IC50 is below 0.01 µM at CDK5/p25 and 0.01 to 0.1 µM at CDK2/CycA2.
For `CC(C)N1CCC([C@@](C)(O)c2ccc3cnc(Nc4ccc(-c5cccn(C)c5=O)cc4F)cc3n2)CC1`, at CDK5/p25, the CDK5/CDK2 specificity result is “++ (greater than 10-fold and less than or equal to 100-fold more active against CDK5 than CDK2)”; the IC50 was below 0.01 µM. Besides, the IC50 at CDK2/CycA2 was in the range of 0.1 to 1 µM.
With `CCOC(=O)c1ccc(-c2ccc(Nc3cc4nc(S(=O)(=O)C5CCN(C)CC5)ccc4cn3)c(F)c2)cc1`, on CDK5/p25, the CDK5/CDK2 specificity entry is reported as “+++ (greater than 100-fold more active against CDK5 than CDK2)” and the IC50 is below 0.01 µM. Besides, the IC50 at CDK2/CycA2 was above 1 µM.
